The values that follow come from US10485854B2, “Method of reducing biofilms” (Lysando AG, priority 2010, dated 2019).

Like-named read-outs stand apart in the source and are kept apart here.

In one test the test system is Escherichia coli WK6. It is filed as cell-based. Particulars: 0.5 mM EDTA, no endolysin.
For another test, the system named is Pseudomonas putida G1. It is filed as cell-based. Particulars: 0.5 mM EDTA, no endolysin.

In the case of `O=C([O-])CN(CCN(CC(=O)[O-])CC(=O)O)CC(=O)O.[Na+].[Na+]` [EDTA, reference compound], the “antibacterial activity as the relative inactivation in logarithmic units (log10N0/Ni)” value in the test on Escherichia coli WK6 (30 minutes (Table 10)) is reported as 0.393 +/− 0.035 logarithmic units; in the test with Escherichia coli WK6 (30 minutes (Table 12)), 0.153 +/− 0.046 logarithmic units; in the test on Escherichia coli WK6 (30 minutes (Table 15)), 0.592 +/− 0.113 logarithmic units; in the test with Pseudomonas putida G1 (30 minutes (Table 12)), 0.072 +/− 0.084 logarithmic units; in the test on Pseudomonas putida G1 (30 minutes (Table 15)), 0.412 +/− 0.055 logarithmic units.
